Where a name gives a salt, the structure may show the parent alone.
Assays:
[1] = test system: Gram-positive and Gram-negative bacteria; experiment: in vivo therapeutic efficacy against systemic infections in mice (overall); design: species or system mice (ddY); details: particularly Pseudomonas aeruginosa
[2] = in vivo; details: mouse, po
Description: The number of dead mice was counted after 7 days, and the value of median lethal dose (LD50, mg/kg) was calculated in accordance with the Behrens-Kaerber method.

Row | Compound | therapeutic effects in vivo against Gram-negative bacteria, relative to compounds 1, 1' and 2 [1] | LD50 at 168 h [2] [mg/kg]
1 | CC1(C)S[C@@H]2[C@H](NC(=O)C(C(=O)Oc3ccc4c(c3)CCC4)c3ccccc3)C(=O)N2[C@H]1C(=O)O (stereo partly drawn) [G, α-(5-Indanyloxycarbonyl)benzylpenicillin sodium salt] | clearly inferior | > 4000
2 | CCn1cc(C(=O)O)c(=O)c2cnc(N3CCNCC3)nc21 [F, 8-Ethyl-5,8-dihydro-5-oxo-2-(1-piperazinyl)pyrido[2,3-d] pyrimidine-6-carboxylic acid] | clearly inferior | > 5000

From US4352803A, “Novel naphthyridine derivatives, intermediates thereof, processes for preparation thereof, and use thereof” (Dainippon Pharmaceutical Co., Ltd., priority 1978, dated 1982)
